Results reported in patent US20140100156A1 (SANOFI, priority 2012, published 2014).
One block for each molecule: values may come before it.

Amino acid sequences for entries named in this document (tags omitted). Residues count along the entry.
UniProt P47871, 26-477: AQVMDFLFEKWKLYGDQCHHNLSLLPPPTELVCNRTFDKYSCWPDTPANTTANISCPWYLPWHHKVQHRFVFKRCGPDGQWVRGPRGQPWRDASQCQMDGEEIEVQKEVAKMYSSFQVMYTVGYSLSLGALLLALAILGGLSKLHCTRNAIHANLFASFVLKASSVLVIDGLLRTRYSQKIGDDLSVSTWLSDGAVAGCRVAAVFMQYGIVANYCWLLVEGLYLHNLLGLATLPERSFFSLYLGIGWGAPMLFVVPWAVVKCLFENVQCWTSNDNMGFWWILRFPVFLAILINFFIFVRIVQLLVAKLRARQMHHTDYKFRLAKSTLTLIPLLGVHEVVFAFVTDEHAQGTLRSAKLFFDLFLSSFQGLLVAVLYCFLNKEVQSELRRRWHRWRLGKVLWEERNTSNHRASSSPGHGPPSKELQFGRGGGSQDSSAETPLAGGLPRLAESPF
UniProt P43220, 24-463: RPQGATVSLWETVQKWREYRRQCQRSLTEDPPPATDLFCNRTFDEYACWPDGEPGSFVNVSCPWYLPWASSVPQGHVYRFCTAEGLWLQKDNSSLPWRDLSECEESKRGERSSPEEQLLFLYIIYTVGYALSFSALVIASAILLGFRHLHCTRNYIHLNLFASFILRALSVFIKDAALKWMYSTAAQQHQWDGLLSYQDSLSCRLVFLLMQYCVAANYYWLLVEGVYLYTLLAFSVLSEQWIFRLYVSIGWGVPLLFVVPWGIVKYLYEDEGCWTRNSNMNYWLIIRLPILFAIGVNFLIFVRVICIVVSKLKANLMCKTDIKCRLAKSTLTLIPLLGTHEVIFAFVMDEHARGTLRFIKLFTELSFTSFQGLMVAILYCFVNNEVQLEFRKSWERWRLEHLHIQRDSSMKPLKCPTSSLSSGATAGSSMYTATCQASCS

Columns and labels:
human glucagon receptor = target: T1, human glucagon receptor (Homo sapiens, UniProt P47871); assay: cAMP response (HTRF) of HEK-293 cells stably expressing human glucagon receptor; assay type: cell-based; conditions: Table 5; cAMP, HEK-293; read-out: EC50 hGlucagon-R
T1 construct: expressed in transfected cells; host or cells: HEK-293

human GLP-1 receptor = target: T2, human GLP-1 receptor (Homo sapiens, UniProt P43220); assay: cAMP response (HTRF) of HEK-293 cells stably expressing human GLP-1 receptor; assay type: cell-based; conditions: Table 5; cAMP, HEK-293; read-out: EC50 hGLP-1R
T2 construct: expressed in transfected cells; host or cells: HEK-293

Compound: CCCCCCCCCCCCCCCC(=O)NCCCC[C@H](NC(=O)[C@H](CCC(N)=O)NC(=O)[C@H](CCCCN)NC(=O)[C@H](CO)NC(=O)[C@H](CC(C)C)NC(=O)[C@H](CC(=O)O)NC(=O)[C@H](CO)NC(=O)[C@@H](NC(=O)[C@H](Cc1ccccc1)NC(=O)[C@@H](NC(=O)CNC(=O)[C@H](CCC(N)=O)NC(=O)[C@@H](CO)NC(=O)[C@@H](N)Cc1c[nH]cn1)[C@@H](C)O)[C@@H](C)O)C(=O)N[C@@H](CCC(=O)O)C(=O)N[C@@H](CO)C(=O)N[C@@H](CCC(N)=O)C(=O)N[C@@H](C)C(=O)N[C@@H](C)C(=O)N[C@@H](CCC(N)=O)C(=O)N[C@@H](CC(=O)O)C(=O)N[C@@H](Cc1ccccc1)C(=O)N[C@H](C(=O)N[C@@H](CCC(=O)O)C(=O)N[C@@H](Cc1c[nH]c2ccccc12)C(=O)N[C@@H](CC(C)C)C(=O)N[C@@H](CCCCN)C(=O)N[C@@H](C)C(=O)NCC(=O)NCC(=O)N1CCC[C@H]1C(=O)N[C@@H](CO)C(=O)N[C@@H](CO)C(=O)NCC(=O)N[C@@H](C)C(=O)N1CCC[C@H]1C(=O)N1CCC[C@H]1C(=O)N1CCC[C@H]1C(=O)N[C@@H](CO)C(N)=O)[C@@H](C)CC [compound 42]
EC50 (human glucagon receptor): 0.199 nM
EC50 (human GLP-1 receptor): 0.0102 nM

Compound: CCCCCCCCCCCCCCCC(=O)NCCCC[C@H](NC(=O)[C@H](CCC(N)=O)NC(=O)[C@H](CCCCN)NC(=O)[C@H](CO)NC(=O)[C@H](CC(C)C)NC(=O)[C@H](CC(=O)O)NC(=O)[C@H](CO)NC(=O)[C@@H](NC(=O)[C@H](Cc1ccccc1)NC(=O)[C@@H](NC(=O)CNC(=O)[C@H](CCC(N)=O)NC(=O)C(C)(C)NC(=O)[C@@H](N)Cc1c[nH]cn1)[C@@H](C)O)[C@@H](C)O)C(=O)N[C@@H](CCC(=O)O)C(=O)N[C@@H](CO)C(=O)N[C@@H](CCC(N)=O)C(=O)N[C@@H](C)C(=O)N[C@@H](C)C(=O)N[C@@H](CCC(N)=O)C(=O)N[C@@H](CC(=O)O)C(=O)N[C@@H](Cc1ccccc1)C(=O)N[C@H](C(=O)N[C@@H](CCC(=O)O)C(=O)N[C@@H](Cc1c[nH]c2ccccc12)C(=O)N[C@@H](CC(C)C)C(=O)N[C@@H](CCCCN)C(=O)N[C@@H](C)C(=O)NCC(=O)NCC(=O)N1CCC[C@H]1C(=O)N[C@@H](CO)C(=O)N[C@@H](CO)C(=O)NCC(=O)N[C@@H](C)C(=O)N1CCC[C@H]1C(=O)N1CCC[C@H]1C(=O)N1CCC[C@H]1C(=O)N[C@@H](CO)C(N)=O)[C@@H](C)CC [compound 43]
EC50 (human glucagon receptor): 0.443 nM
EC50 (human GLP-1 receptor): 0.0041 nM

EC50 (human glucagon receptor): 0.0199 nM
EC50 (human GLP-1 receptor): 0.0075 nM
Compound: CCCCCCCCCCCCCCCCCC(=O)N[C@@H](CCC(=O)NCCCC[C@H](NC(=O)[C@H](CCC(N)=O)NC(=O)[C@H](CCCCN)NC(=O)[C@H](CO)NC(=O)[C@H](CC(C)C)NC(=O)[C@H](CC(=O)O)NC(=O)[C@H](CO)NC(=O)[C@@H](NC(=O)[C@H](Cc1ccccc1)NC(=O)[C@@H](NC(=O)CNC(=O)[C@H](CCC(N)=O)NC(=O)[C@@H](CO)NC(=O)[C@@H](N)Cc1c[nH]cn1)[C@@H](C)O)[C@@H](C)O)C(=O)N[C@@H](CCC(=O)O)C(=O)N[C@@H](CO)C(=O)N[C@@H](CCCNC(=N)N)C(=O)N[C@@H](C)C(=O)N[C@@H](C)C(=O)N[C@@H](CCC(N)=O)C(=O)N[C@@H](CC(C)C)C(=O)N[C@@H](Cc1ccccc1)C(=O)N[C@H](C(=O)N[C@@H](CCC(=O)O)C(=O)N[C@@H](Cc1c[nH]c2ccccc12)C(=O)N[C@@H](CC(C)C)C(=O)N[C@@H](CCCCN)C(=O)N[C@@H](C)C(=O)NCC(=O)NCC(=O)N1CCC[C@H]1C(=O)N[C@@H](CO)C(=O)N[C@@H](CO)C(=O)NCC(=O)N[C@@H](C)C(=O)N1CCC[C@H]1C(=O)N1CCC[C@H]1C(=O)N1CCC[C@H]1C(=O)N[C@@H](CO)C(N)=O)[C@@H](C)CC)C(=O)O [compound 45]

Compound: CCCCCCCCCCCCCCCC(=O)N[C@@H](CCC(=O)NCCCC[C@H](NC(=O)[C@H](CCC(N)=O)NC(=O)[C@H](CCCCN)NC(=O)[C@H](CO)NC(=O)[C@H](CC(C)C)NC(=O)[C@H](CC(=O)O)NC(=O)[C@H](CO)NC(=O)[C@@H](NC(=O)[C@H](Cc1ccccc1)NC(=O)[C@@H](NC(=O)CNC(=O)[C@H](CCC(N)=O)NC(=O)[C@@H](CO)NC(=O)[C@@H](N)Cc1c[nH]cn1)[C@@H](C)O)[C@@H](C)O)C(=O)N[C@@H](CCC(=O)O)C(=O)N[C@@H](CO)C(=O)N[C@@H](CCCNC(=N)N)C(=O)N[C@@H](C)C(=O)N[C@@H](C)C(=O)NC(C)(C)C(=O)N[C@@H](CC(C)C)C(=O)N[C@@H](Cc1ccccc1)C(=O)N[C@H](C(=O)N[C@@H](CCC(=O)O)C(=O)N[C@@H](Cc1c[nH]c2ccccc12)C(=O)N[C@@H](CC(C)C)C(=O)N[C@@H](CCCCN)C(=O)N[C@@H](C)C(=O)NCC(=O)NCC(=O)N1CCC[C@H]1C(=O)N[C@@H](CO)C(=O)N[C@@H](CO)C(=O)NCC(=O)N[C@@H](C)C(=O)N1CCC[C@H]1C(=O)N1CCC[C@H]1C(=O)N1CCC[C@H]1C(=O)N[C@@H](CO)C(N)=O)[C@@H](C)CC)C(=O)O [compound 46]
EC50 (human glucagon receptor): 0.0251 nM
EC50 (human GLP-1 receptor): 0.0032 nM

Compound: CCCCCCCCCCCCCCCC(=O)N[C@@H](CCC(=O)NCCCC[C@H](NC(=O)[C@H](CCC(N)=O)NC(=O)[C@H](CCCCN)NC(=O)[C@H](CO)NC(=O)[C@H](CC(C)C)NC(=O)[C@H](CC(=O)O)NC(=O)[C@H](CO)NC(=O)[C@@H](NC(=O)[C@H](Cc1ccccc1)NC(=O)[C@@H](NC(=O)CNC(=O)[C@H](CCC(N)=O)NC(=O)[C@@H](CO)NC(=O)[C@@H](N)Cc1c[nH]cn1)[C@@H](C)O)[C@@H](C)O)C(=O)N[C@@H](CCC(=O)O)C(=O)N[C@@H](CO)C(=O)N[C@@H](CCCNC(=N)N)C(=O)N[C@@H](C)C(=O)N[C@@H](C)C(=O)N[C@@H](CCC(N)=O)C(=O)N[C@@H](CCC(=O)O)C(=O)N[C@@H](Cc1ccccc1)C(=O)N[C@H](C(=O)N[C@@H](CCC(=O)O)C(=O)N[C@@H](Cc1c[nH]c2ccccc12)C(=O)N[C@@H](CC(C)C)C(=O)N[C@@H](CCCCN)C(=O)N[C@@H](C)C(=O)NCC(=O)NCC(=O)N1CCC[C@H]1C(=O)N[C@@H](CO)C(=O)N[C@@H](CO)C(=O)NCC(=O)N[C@@H](C)C(=O)N1CCC[C@H]1C(=O)N1CCC[C@H]1C(=O)N1CCC[C@H]1C(=O)N[C@@H](CO)C(N)=O)[C@@H](C)CC)C(=O)O [compound 47]
EC50 (human glucagon receptor): 0.0103 nM
EC50 (human GLP-1 receptor): 0.0022 nM

Compound: CCCCCCCCCCCCCCCC(=O)N[C@@H](CCC(=O)NCCCC[C@H](NC(=O)[C@H](CCC(N)=O)NC(=O)[C@H](CCCCN)NC(=O)[C@H](CO)NC(=O)[C@H](CC(C)C)NC(=O)[C@H](CC(=O)O)NC(=O)[C@H](CO)NC(=O)[C@@H](NC(=O)[C@H](Cc1ccccc1)NC(=O)[C@@H](NC(=O)CNC(=O)[C@H](CCC(N)=O)NC(=O)[C@@H](CO)NC(=O)[C@@H](N)Cc1c[nH]cn1)[C@@H](C)O)[C@@H](C)O)C(=O)N[C@@H](CCC(=O)O)C(=O)N[C@@H](CO)C(=O)N[C@@H](CCCNC(=N)N)C(=O)N[C@@H](C)C(=O)N[C@@H](C)C(=O)N[C@@H](CCC(N)=O)C(=O)N[C@@H](CC(C)C)C(=O)N[C@@H](Cc1ccccc1)C(=O)N[C@H](C(=O)N[C@@H](CCC(=O)O)C(=O)N[C@@H](Cc1c[nH]c2ccccc12)C(=O)N[C@@H](CC(C)C)C(=O)N[C@@H](CCCCN)C(=O)N[C@@H](C)C(=O)NCC(=O)NCC(=O)N1CCC[C@H]1C(=O)N[C@@H](CO)C(=O)N[C@@H](CO)C(=O)NCC(=O)N[C@@H](C)C(=O)N1CCC[C@H]1C(=O)N1CCC[C@H]1C(=O)N1CCC[C@H]1C(=O)N[C@@H](CO)C(N)=O)[C@@H](C)CC)C(=O)O [compound 48]
EC50 (human glucagon receptor): 0.0536 nM
EC50 (human GLP-1 receptor): 0.0059 nM
